Results on 15 compounds are retold here after patent publication US20090099157A1, “TETRAHYDRO-PYRAZOLO-PYRIDINE THIOETHER MODULATORS OF CATHEPSIN S” (priority 2007, published 2009).

By UniProt entry, the sequences of proteins in these tests, tags left out. Residues count along the entry.
UniProt P25774, 115-331: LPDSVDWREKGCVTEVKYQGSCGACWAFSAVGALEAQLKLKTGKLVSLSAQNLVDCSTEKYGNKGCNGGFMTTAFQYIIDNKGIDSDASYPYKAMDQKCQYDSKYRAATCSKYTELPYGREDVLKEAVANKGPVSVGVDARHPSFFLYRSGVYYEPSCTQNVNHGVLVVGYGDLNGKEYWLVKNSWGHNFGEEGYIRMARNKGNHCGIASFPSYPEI

The test has as its target Recombinant human cathepsin S (CatS) (Homo sapiens, UniProt P25774). The test can be described thus: biochemical.

The structures appear in SMILES notation.

For the compound `CS(=O)(=O)N1CCc2c(c(-c3ccc(C(F)(F)F)c(SCCN4CCC(F)CC4)c3)nn2CC(O)CN2CCC(C(=O)N3CCCC3)CC2)C1` (stereo not drawn) [Example 816, 1-{3-[3-{[2-(4-Fluoropiperidin-1-yl)ethyl]sulfanyl}-4-(trifluoromethyl)phenyl]-5-(methylsulfonyl)-4,5,6,7-tetrahydro-1H-pyrazolo[4,3-c]pyridin-1-yl}-3-[4-(pyrrolidin-1-ylcarbonyl)piperidin-1-yl]propan-2-ol], the half-inhibitory concentration (IC50) was determined as 70 nM.

Regarding `O=C(c1cccs1)N1CCc2c(c(-c3ccc(C(F)(F)F)c(SCCN4CCC(F)CC4)c3)nn2C[C@@H](O)CN2CCCCC2)C1` [Example 577, (2S)-1-{3-[3-{[2-(4-Fluoropiperidin-1-yl)ethyl]sulfanyl}-4-(trifluoromethyl)phenyl]-5-(2-thienylcarbonyl)-4,5,6,7-tetrahydro-1H-pyrazolo[4,3-c]pyridin-1-yl}-3-piperidin-1-ylpropan-2-ol], the IC50 is 350 nM.

With `CC1CCN(CCSc2cc(-c3nn(C[C@@H](O)CN4CCC(C(C)(C)C)CC4)c4c3CN(S(C)(=O)=O)CC4)ccc2C(F)(F)F)CC1` [Example 643, (2S)-1-[4-(1,1-Dimethylethyl)piperidin-1-yl]-3-{3-[3-{[2-(4-methylpiperidin-1-yl)ethyl]sulfanyl}-4-(trifluoromethyl)phenyl]-5-(methylsulfonyl)-4,5,6,7-tetrahydro-1H-pyrazolo[4,3-c]pyridin-1-yl}propan-2-ol], the IC50 turned out to be 60 nM.

Regarding `CS(=O)(=O)N1CCc2c(c(-c3ccc(C(F)(F)F)c(SCCN4CCC(F)(F)CC4)c3)nn2C[C@@H](O)CN2CC=CCC2)C1` [Example 485, (2S)-1-{3-[3-{[2-(4,4-Difluoropiperidin-1-yl)ethyl]sulfanyl}-4-(trifluoromethyl)phenyl]-5-(methylsulfonyl)-4,5,6,7-tetrahydro-1H-pyrazolo[4,3-c]pyridin-1-yl}-3-(3,6-dihydropyridin-1(2H)-yl)propan-2-ol], the IC50 turned out to be 250 nM.

For `CCCNCCSc1cc(-c2nn(CCCN3CCC(N4CCCC4)CC3)c3c2CN(S(C)(=O)=O)CC3)ccc1C(F)(F)F` [Example 440, N-(2-{[5-{5-(Methylsulfonyl)-1-[3-(4-pyrrolidin-1-ylpiperidin-1-yl)propyl]-4,5,6,7-tetrahydro-1H-pyrazolo[4,3-c]pyridin-3-yl}-2-(trifluoromethyl)phenyl]sulfanyl}ethyl)propan-1-amine], the IC50 stood at 740 nM.

Take `CS(=O)(=O)N1CCc2c(c(-c3ccc(C(F)(F)F)c(SCCN4CCC(F)CC4)c3)nn2C[C@H](O)CN2CCC(c3c(Cl)cncc3Cl)CC2)C1` [Example 203, (2R)-1-[4-(3,5-Dichloropyridin-4-yl)piperidin-1-yl]-3-{3-[3-{[2-(4-fluoropiperidin-1-yl)ethyl]sulfanyl}-4-(trifluoromethyl)phenyl]-5-(methylsulfonyl)-4,5,6,7-tetrahydro-1H-pyrazolo[4,3-c]pyridin-1-yl}propan-2-ol]: the IC50 came out at 20 nM.

For `CS(=O)(=O)N1CCc2c(c(-c3ccc(C(F)(F)F)c(SCCN4CCOCC4)c3)nn2CC(O)CN2CCN(c3c(Cl)cncc3Cl)CC2)C1` (stereo not drawn) [Example 868, 1-[4-(3,5-Dichloropyridin-4-yl)piperazin-1-yl]-3-[5-(methylsulfonyl)-3-{3-[(2-morpholin-4-ylethyl)sulfanyl]-4-(trifluoromethyl)phenyl}-4,5,6,7-tetrahydro-1H-pyrazolo[4,3-c]pyridin-1-yl]propan-2-ol], the IC50 was 40 nM.

Regarding `CS(=O)(=O)N1CCc2c(c(-c3ccc(C(F)(F)F)c(SCCN4CCOCC4)c3)nn2CC(O)CN2CCC(C#N)(c3ccccc3)CC2)C1` (stereo not drawn) [Example 765, 1-{2-Hydroxy-3-[5-(methylsulfonyl)-3-{3-[(2-morpholin-4-ylethyl)sulfanyl]-4-(trifluoromethyl)phenyl}-4,5,6,7-tetrahydro-1H-pyrazolo[4,3-c]pyridin-1-yl]propyl}-4-phenylpiperidine-4-carbonitrile], the IC50 was determined as 95 nM.

Regarding `CS(=O)(=O)N1CCc2c(c(-c3ccc(C(F)(F)F)c(SCCN)c3)nn2CC(O)CN2CCC(N3CCCC3=O)CC2)C1` (stereo not drawn) [Example 62, 1-[1-(3-{3-[3-(2-Amino-ethylsulfanyl)-4-trifluoromethyl-phenyl]-5-methanesulfonyl-4,5,6,7-tetrahydro-pyrazolo[4,3-c]pyridin-1-yl}-2-hydroxy-propyl)-piperidin-4-yl]-pyrrolidin-2-one], the IC50 turned out to be 220 nM.

With `C[C@@H]1CN(CCSc2cc(-c3nn(CCCN4CCCCC4)c4c3CN(S(C)(=O)=O)CC4)ccc2C(F)(F)F)C[C@@H](C)O1` [Example 146, 3-[3-({2-[(2R,6R)-2,6-Dimethylmorpholin-4-yl]ethyl}sulfanyl)-4-(trifluoromethyl)phenyl]-5-(methylsulfonyl)-1-(3-piperidin-1-ylpropyl)-4,5,6,7-tetrahydro-1H-pyrazolo[4,3-c]pyridine], the IC50 came to 420 nM.

With `CS(=O)(=O)N1CCc2c(c(-c3ccc(C(F)(F)F)c(SCC(=O)N4CCCC4)c3)nn2CC(O)CN2CCCCC2)C1` (stereo not drawn) [Example 255, 1-[5-(Methylsulfonyl)-3-{3-[(2-oxo-2-pyrrolidin-1-ylethyl)sulfanyl]-4-(trifluoromethyl)phenyl}-4,5,6,7-tetrahydro-1H-pyrazolo[4,3-c]pyridin-1-yl]-3-piperidin-1-ylpropan-2-ol], the IC50 is 100 nM.

In the case of `CS(=O)(=O)N1CCc2c(c(-c3ccc(C(F)(F)F)c(SCC(=O)N4CCOCC4)c3)nn2CC(O)CN2CCN(c3ncccc3Cl)CC2)C1` (stereo not drawn) [Example 848, 1-[4-(3-Chloropyridin-2-yl)piperazin-1-yl]-3-[5-(methylsulfonyl)-3-{3-[(2-morpholin-4-yl-2-oxoethyl)sulfanyl]-4-(trifluoromethyl)phenyl}-4,5,6,7-tetrahydro-1H-pyrazolo[4,3-c]pyridin-1-yl]propan-2-ol], the IC50 came out at 10 nM.

With `CS(=O)(=O)N1CCc2c(c(-c3ccc(C(F)(F)F)c(SCCN4CCCC(CO)C4)c3)nn2CC(O)CN2CCC(O)(c3ccccn3)CC2)C1` (stereo not drawn) [Example 839, 1-(2-Hydroxy-3-{3-[3-({2-[3-(hydroxymethyl)piperidin-1-yl]ethyl}sulfanyl)-4-(trifluoromethyl)phenyl]-5-(methylsulfonyl)-4,5,6,7-tetrahydro-1H-pyrazolo[4,3-c]pyridin-1-yl}propyl)-4-pyridin-2-ylpiperidin-4-ol], the IC50 was 90 nM.

For the compound `CC(=O)N1CCN(CCSc2cc(-c3nn(CC(O)CN4CCCC4)c4c3CN(S(C)(=O)=O)CC4)ccc2C(F)(F)F)CC1` (stereo not drawn) [Example 448, 1-{3-[3-{[2-(4-Acetylpiperazin-1-yl)ethyl]sulfanyl}-4-(trifluoromethyl)phenyl]-5-(methylsulfonyl)-4,5,6,7-tetrahydro-1H-pyrazolo[4,3-c]pyridin-1-yl}-3-pyrrolidin-1-ylpropan-2-ol], the concentration for half-maximal inhibition (IC50) amounted to 1400 nM.

Consider `CC1(C)CCCN(CCSc2cc(-c3nn(CCCN4CCC(N5CCCC5=O)CC4)c4c3CN(S(C)(=O)=O)CC4)ccc2C(F)(F)F)C1` [Example 738, 1-[1-(3-{3-[3-{[2-(3,3-Dimethylpiperidin-1-yl)ethyl]sulfanyl}-4-(trifluoromethyl)phenyl]-5-(methylsulfonyl)-4,5,6,7-tetrahydro-1H-pyrazolo[4,3-c]pyridin-1-yl}propyl)piperidin-4-yl]pyrrolidin-2-one], for which the IC50 is 140 nM.
